Reference: ChEMBL document CHEMBL3886191, “Optically active pyrazolylaminoquinazoline, and pharmaceutical compositions and methods of use thereof” (2016)

Sequences of proteins named here, by UniProt entry; tags and fusion partners are left off.
UniProt P0DMS8, whole entry: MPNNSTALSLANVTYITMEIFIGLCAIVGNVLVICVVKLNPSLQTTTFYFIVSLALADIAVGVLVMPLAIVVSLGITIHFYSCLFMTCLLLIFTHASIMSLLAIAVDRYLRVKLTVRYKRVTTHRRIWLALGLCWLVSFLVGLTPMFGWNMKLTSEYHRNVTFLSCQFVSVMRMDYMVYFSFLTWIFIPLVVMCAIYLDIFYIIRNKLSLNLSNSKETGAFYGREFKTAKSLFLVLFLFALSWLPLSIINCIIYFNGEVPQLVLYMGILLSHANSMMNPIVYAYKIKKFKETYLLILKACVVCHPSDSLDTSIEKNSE

Molecular target: Adenosine receptor A3 (Homo sapiens, UniProt P0DMS8)
Test: Incubations of a range of concentration of each compound were carried out in duplicates for 1 h at 25° C. in 25 mM HEPES, pH 7.4, 5 mM MgCl2, 1 mM CaCl2, 0.1% BSA, in the presence of 0.5 nM [125I] AB-MECA. Non-specific binding was determined in the presence of 1 uM IB-MECA.
Type: cell-based, CHO-K1

| Kd [µM] | Structure (SMILES) |
| --- | --- |
| 0.00142 | Cc1cc(Nc2nc([C@@H](O)c3ccc(F)cc3)nc3ccccc23)n[nH]1 |
| 0.0285 | Cc1cc(Nc2nc([C@H](O)c3ccc(F)cc3)nc3ccccc23)n[nH]1 |
